Test system: SKBR3 cells
Assay: Cell viability assay (CellTitre Glo luminescence) on SKBR3 cells
Format: cell-based
Details: SKBR3 breast cancer cell line; 72 h; concentration given as pM of protein; read-out: estimated protein concentration IC50
Procedure: MMAE polyamide Trastuzumab ADC was tested for activity against SKBR3 cells (breast cancer cell line) (see FIG. 13). The sample was added to cells for 72 h before application of the CellTitre Glo luminescence reagent. Concentration is given as pM of protein.

Work on MMAE polyamide Trastuzumab ADC yielded an IC50 of 158 pM.

From patent US20220054649A1, “ANTIBODY-DRUG CONJUGATES” (SPIREA LIMITED, priority 2018, published 2022)
